{"sequences": {"note": "By UniProt entry, the sequences of proteins in these tests, tags left out.", "UniProt P42336, whole entry H1047R": "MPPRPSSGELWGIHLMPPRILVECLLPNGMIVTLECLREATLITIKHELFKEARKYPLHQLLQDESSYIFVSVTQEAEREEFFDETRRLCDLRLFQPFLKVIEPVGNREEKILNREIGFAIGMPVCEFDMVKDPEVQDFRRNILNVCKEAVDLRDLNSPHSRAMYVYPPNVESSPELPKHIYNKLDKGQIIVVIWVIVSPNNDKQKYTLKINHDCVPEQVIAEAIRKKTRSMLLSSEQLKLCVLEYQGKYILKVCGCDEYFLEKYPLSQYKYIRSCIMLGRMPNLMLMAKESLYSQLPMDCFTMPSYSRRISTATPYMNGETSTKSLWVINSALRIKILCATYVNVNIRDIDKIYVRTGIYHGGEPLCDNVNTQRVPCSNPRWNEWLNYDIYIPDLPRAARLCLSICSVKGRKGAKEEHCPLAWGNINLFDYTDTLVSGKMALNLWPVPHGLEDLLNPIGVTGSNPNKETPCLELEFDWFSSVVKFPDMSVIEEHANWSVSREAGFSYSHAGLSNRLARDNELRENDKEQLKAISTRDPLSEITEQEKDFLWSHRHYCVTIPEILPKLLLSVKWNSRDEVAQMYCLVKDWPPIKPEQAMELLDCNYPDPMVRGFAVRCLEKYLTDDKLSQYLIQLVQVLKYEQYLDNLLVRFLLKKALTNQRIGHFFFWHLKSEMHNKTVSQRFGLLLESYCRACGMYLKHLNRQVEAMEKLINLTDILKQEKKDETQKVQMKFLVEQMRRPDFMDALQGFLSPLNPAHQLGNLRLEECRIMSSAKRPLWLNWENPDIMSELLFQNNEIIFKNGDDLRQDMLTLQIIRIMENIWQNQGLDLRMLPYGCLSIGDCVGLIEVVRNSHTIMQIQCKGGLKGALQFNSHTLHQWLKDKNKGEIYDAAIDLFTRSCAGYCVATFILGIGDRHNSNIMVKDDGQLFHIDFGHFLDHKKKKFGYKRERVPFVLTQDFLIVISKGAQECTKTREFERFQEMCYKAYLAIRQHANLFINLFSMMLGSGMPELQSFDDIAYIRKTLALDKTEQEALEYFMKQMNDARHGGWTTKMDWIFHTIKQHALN", "UniProt P27986, whole entry partner": "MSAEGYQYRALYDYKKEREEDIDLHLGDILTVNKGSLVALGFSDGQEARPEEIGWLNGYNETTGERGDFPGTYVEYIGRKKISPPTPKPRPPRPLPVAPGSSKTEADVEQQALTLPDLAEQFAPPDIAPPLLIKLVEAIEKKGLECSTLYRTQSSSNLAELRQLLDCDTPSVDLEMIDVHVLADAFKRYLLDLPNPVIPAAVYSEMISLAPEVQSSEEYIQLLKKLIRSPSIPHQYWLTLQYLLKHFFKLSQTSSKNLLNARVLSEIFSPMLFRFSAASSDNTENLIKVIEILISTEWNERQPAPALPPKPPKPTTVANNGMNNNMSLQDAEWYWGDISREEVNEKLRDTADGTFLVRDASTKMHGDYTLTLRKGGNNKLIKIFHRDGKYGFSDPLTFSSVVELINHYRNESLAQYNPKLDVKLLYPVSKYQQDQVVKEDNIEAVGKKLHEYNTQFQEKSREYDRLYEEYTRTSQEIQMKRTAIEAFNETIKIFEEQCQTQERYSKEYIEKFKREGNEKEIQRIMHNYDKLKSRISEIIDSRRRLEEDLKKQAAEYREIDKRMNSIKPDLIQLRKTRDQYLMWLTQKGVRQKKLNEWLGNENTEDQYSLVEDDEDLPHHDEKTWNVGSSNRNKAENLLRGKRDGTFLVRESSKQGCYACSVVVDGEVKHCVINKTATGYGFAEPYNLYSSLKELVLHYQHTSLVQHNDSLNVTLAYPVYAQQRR"}, "source": "patent US20260132129A1", "molecular_target": "PI3Kα H1047R (T47D cells) (Homo sapiens, UniProt P42336, H1047R)", "experiment": "PI3Kα cellular assay: pAKT HTRF in T47D cells after EGF stimulation", "format": "cell-based", "conditions": "for IC50: read-out: T47D pAKT S473 HTRF IC50 (H1047R): Average IC50, T47D cells (PI3Kα H1047R), pAKT S473 HTRF", "key": {"[1]": {"conditions": "selectivity T47D (H1047R) over SKBR3 (WT), pAKT HTRF"}, "[2]": {"conditions": "selectivity of T47D (H1047R) over SKBR3 (WT) pAKT IC50"}, "[3]": {"conditions": "1 hr compound, 20 ng/ml EGF 10 min"}}, "note": "Where two headings read alike, the source gives them in different places."}
{"smiles": "Cc1cc([C@H](C)Nc2ccccc2C(N)=O)c2nc(C3CCOCC3)c(C)c(=O)n2c1", "values": [{"measurement": "IC50", "setting": "EGF stimulation", "value": "< 100", "unit": "nM"}, {"measurement": "T47D pAKT S473 HTRF IC50 (H1047R): T47D (H1047R) selectivity over SKBR3 (WT)", "setting": "[1]", "value": "A (A denotes >20-fold)"}]}
{"smiles": "Cc1cc([C@H](C)Nc2ccccc2C(=O)O)c2nc(-c3ccc4c(c3)c(N)nn4C3CC3)cc(=O)n2c1", "values": [{"measurement": "IC50", "setting": "EGF stimulation", "value": "> 2000", "unit": "nM"}, {"measurement": "T47D pAKT S473 HTRF IC50 (H1047R): T47D (H1047R) selectivity over SKBR3 (WT)", "setting": "[2]", "value": "C (C denotes ≤5-fold)"}]}
{"smiles": "Cc1cc([C@@H](C)Nc2ccccc2S(N)(=O)=O)c2nc(-c3cnc4c(c3)c(C)nn4C)c(C)c(=O)n2c1", "values": [{"measurement": "IC50", "setting": "EGF stimulation", "value": "100 to 500", "unit": "nM"}, {"measurement": "T47D pAKT S473 HTRF IC50 (H1047R): T47D (H1047R) selectivity over SKBR3 (WT)", "setting": "[2]", "value": "A (A denotes >20-fold)"}]}
{"smiles": "Cc1cc([C@@H](C)Nc2ccccc2C(=O)O)c2nc(N3CC4(COC4)C3)cc(=O)n2c1", "values": [{"measurement": "IC50", "setting": "[3]", "value": "> 2000", "unit": "nM"}, {"measurement": "T47D pAKT S473 HTRF IC50 (H1047R): T47D (H1047R) selectivity over SKBR3 (WT)", "setting": "[1]", "value": "C (C denotes ≤5-fold)"}]}
{"smiles": "Cc1cc([C@H](C)Nc2cccc3c2C(=O)NS3(=O)=O)c2nc(N3Cc4ccccc4C3)cc(=O)n2c1", "values": [{"measurement": "IC50", "setting": "EGF stimulation", "value": "> 2000", "unit": "nM"}, {"measurement": "T47D pAKT S473 HTRF IC50 (H1047R): T47D (H1047R) selectivity over SKBR3 (WT)", "setting": "[1]", "value": "C (C denotes ≤5-fold)"}]}
{"smiles": "Cc1cc(C(C)Nc2cc(C(=O)O)c3[nH]ncc3c2)c2nc(N3CCOCC3)cc(=O)n2c1", "note": "(stereo not drawn)", "values": [{"measurement": "IC50", "setting": "EGF stimulation", "value": "> 2000", "unit": "nM"}, {"measurement": "T47D pAKT S473 HTRF IC50 (H1047R): T47D (H1047R) selectivity over SKBR3 (WT)", "setting": "[2]", "value": "C (C denotes ≤5-fold)"}]}
{"smiles": "Cc1cc([C@@H](C)Nc2cccc(C#N)c2C(=O)O)c2nc(-c3ccc4c(c3)c(C)nn4C)cc(=O)n2c1", "values": [{"measurement": "IC50", "setting": "EGF stimulation", "value": "> 2000", "unit": "nM"}, {"measurement": "T47D pAKT S473 HTRF IC50 (H1047R): T47D (H1047R) selectivity over SKBR3 (WT)", "setting": "[2]", "value": "C (C denotes ≤5-fold)"}]}
{"smiles": "Cc1cc([C@@H](C)Nc2ccccc2C(=O)O)c2nc(-c3ccc4c(c3)c(=O)[nH]n4C)cc(=O)n2c1", "values": [{"measurement": "IC50", "setting": "EGF stimulation", "value": "> 2000", "unit": "nM"}, {"measurement": "T47D pAKT S473 HTRF IC50 (H1047R): T47D (H1047R) selectivity over SKBR3 (WT)", "setting": "[2]", "value": "C (C denotes ≤5-fold)"}]}
{"smiles": "Cc1cc(C(C)Nc2ccccc2C(=O)O)c2nc(-c3cccc(C(F)F)c3)c(C)c(=O)n2c1", "note": "(stereo not drawn)", "values": [{"measurement": "IC50", "setting": "EGF stimulation", "value": "100 to 500", "unit": "nM"}, {"measurement": "T47D pAKT S473 HTRF IC50 (H1047R): T47D (H1047R) selectivity over SKBR3 (WT)", "setting": "[1]", "value": "A (A denotes >20-fold)"}]}
{"smiles": "Cc1cc([C@@H](C)Nc2ccccc2C(=O)O)c2nc(-c3ccc(C(F)F)nc3)c(C)c(=O)n2c1", "values": [{"measurement": "IC50", "setting": "EGF stimulation", "value": "< 100", "unit": "nM"}, {"measurement": "T47D pAKT S473 HTRF IC50 (H1047R): T47D (H1047R) selectivity over SKBR3 (WT)", "setting": "[1]", "value": "A (A denotes >20-fold)"}]}
{"smiles": "Cc1cc([C@@H](C)Nc2ccccc2C(=O)O)c2nc(-c3ccc4c(c3)c(N(C)C)nn4C)c(C)c(=O)n2c1", "values": [{"measurement": "IC50", "setting": "EGF stimulation", "value": "< 100", "unit": "nM"}, {"measurement": "T47D pAKT S473 HTRF IC50 (H1047R): T47D (H1047R) selectivity over SKBR3 (WT)", "setting": "[2]", "value": "A (A denotes >20-fold)"}]}
{"smiles": "Cc1cc([C@@H](C)Nc2ccccc2C(N)=O)c2nc(-c3cccnc3)c(C)c(=O)n2c1", "values": [{"measurement": "IC50", "setting": "EGF stimulation", "value": "< 100", "unit": "nM"}, {"measurement": "T47D pAKT S473 HTRF IC50 (H1047R): T47D (H1047R) selectivity over SKBR3 (WT)", "setting": "[1]", "value": "A (A denotes >20-fold)"}]}
{"smiles": "Cc1cc(C(C)Nc2ccccc2C(=O)O)c2nc(Nc3cc(C)cn4c(=O)[nH]nc34)cc(=O)n2c1", "note": "(stereo not drawn)", "values": [{"measurement": "IC50", "setting": "EGF stimulation", "value": "> 2000", "unit": "nM"}, {"measurement": "T47D pAKT S473 HTRF IC50 (H1047R): T47D (H1047R) selectivity over SKBR3 (WT)", "setting": "[2]", "value": "C (C denotes ≤5-fold)"}]}
{"smiles": "Cc1cc([C@@H](C)Nc2ccccc2S(N)(=O)=O)c2nc(N3Cc4ccccc4[C@@H]3C)c(C)c(=O)n2c1", "values": [{"measurement": "IC50", "setting": "EGF stimulation", "value": "100 to 500", "unit": "nM"}, {"measurement": "T47D pAKT S473 HTRF IC50 (H1047R): T47D (H1047R) selectivity over SKBR3 (WT)", "setting": "[1]", "value": "A (A denotes >20-fold)"}]}
{"smiles": "Cc1cc([C@H](C)Nc2ccccc2S(N)(=O)=O)c2nc(-c3cnc(C)c(Cl)c3)c(C)c(=O)n2c1", "values": [{"measurement": "IC50", "setting": "EGF stimulation", "value": "100 to 500", "unit": "nM"}, {"measurement": "T47D pAKT S473 HTRF IC50 (H1047R): T47D (H1047R) selectivity over SKBR3 (WT)", "setting": "[1]", "value": "A (A denotes >20-fold)"}]}
{"smiles": "Cc1nn(C)c2ccc(-c3cc(=O)n4cc(Cl)cc(C(C)Nc5ccccc5C(=O)O)c4n3)cc12", "note": "(stereo not drawn)", "values": [{"measurement": "IC50", "setting": "EGF stimulation", "value": "< 100", "unit": "nM"}, {"measurement": "T47D pAKT S473 HTRF IC50 (H1047R): T47D (H1047R) selectivity over SKBR3 (WT)", "setting": "[2]", "value": "A (A denotes >20-fold)"}]}
{"smiles": "Cc1cc([C@H](C)Nc2ccccc2C(=O)O)c2nc(-c3ccc(Cl)cc3F)c(C)c(=O)n2c1", "values": [{"measurement": "IC50", "setting": "EGF stimulation", "value": "> 2000", "unit": "nM"}, {"measurement": "T47D pAKT S473 HTRF IC50 (H1047R): T47D (H1047R) selectivity over SKBR3 (WT)", "setting": "[2]", "value": "C (C denotes ≤5-fold)"}]}
{"smiles": "Cc1cc([C@H](C)Nc2ccccc2C(=O)O)c2nc(-c3cccc(C#N)c3)c(C)c(=O)n2c1", "note": "(single isomer, unassigned)", "values": [{"measurement": "IC50", "setting": "EGF stimulation", "value": "100 to 500", "unit": "nM"}, {"measurement": "T47D pAKT S473 HTRF IC50 (H1047R): T47D (H1047R) selectivity over SKBR3 (WT)", "setting": "[2]", "value": "A (A denotes >20-fold)"}]}
{"smiles": "Cc1cc([C@@H](C)Nc2ccccc2S(N)(=O)=O)c2nc(-c3ccc(F)c(C#N)c3)c(C)c(=O)n2c1", "values": [{"measurement": "IC50", "setting": "EGF stimulation", "value": "100 to 500", "unit": "nM"}, {"measurement": "T47D pAKT S473 HTRF IC50 (H1047R): T47D (H1047R) selectivity over SKBR3 (WT)", "setting": "[2]", "value": "A (A denotes >20-fold)"}]}
{"smiles": "Cc1cc(C(C)Nc2cccc(CC(=O)O)c2)c2nc(N3CCOCC3)cc(=O)n2c1", "note": "(stereo not drawn)", "values": [{"measurement": "IC50", "setting": "[3]", "value": "> 2000", "unit": "nM"}, {"measurement": "T47D pAKT S473 HTRF IC50 (H1047R): T47D (H1047R) selectivity over SKBR3 (WT)", "setting": "[1]", "value": "C (C denotes ≤5-fold)"}]}
{"smiles": "Cc1cc([C@H](C)Nc2ccccc2C(=O)O)c2nc(N3CC4(COC4)C3)cc(=O)n2c1", "values": [{"measurement": "IC50", "setting": "[3]", "value": "> 2000", "unit": "nM"}, {"measurement": "T47D pAKT S473 HTRF IC50 (H1047R): T47D (H1047R) selectivity over SKBR3 (WT)", "setting": "[1]", "value": "C (C denotes ≤5-fold)"}]}
{"smiles": "Cc1cc([C@H](C)Nc2ccccc2S(N)(=O)=O)c2nc(N3Cc4ccccc4C3)c(C3CC3)c(=O)n2c1", "values": [{"measurement": "IC50", "setting": "EGF stimulation", "value": "> 2000", "unit": "nM"}, {"measurement": "T47D pAKT S473 HTRF IC50 (H1047R): T47D (H1047R) selectivity over SKBR3 (WT)", "setting": "[2]", "value": "C (C denotes ≤5-fold)"}]}
{"smiles": "Cc1cc([C@H](C)Nc2ccccc2C(=O)O)c2nc(-c3ccc(Cl)cc3)c(C)c(=O)n2c1", "values": [{"measurement": "IC50", "setting": "EGF stimulation", "value": "500 to 2000", "unit": "nM"}]}
{"smiles": "Cc1cc(C(C)Nc2cccc3[nH]c(=O)oc23)c2nc(N3CCOCC3)cc(=O)n2c1", "note": "(stereo not drawn)", "values": [{"measurement": "IC50", "setting": "[3]", "value": "> 2000", "unit": "nM"}, {"measurement": "T47D pAKT S473 HTRF IC50 (H1047R): T47D (H1047R) selectivity over SKBR3 (WT)", "setting": "[1]", "value": "C (C denotes ≤5-fold)"}]}
{"smiles": "Cc1cc([C@@H](C)Nc2ccncc2C(=O)O)c2nc(N3CCOCC3)cc(=O)n2c1", "values": [{"measurement": "IC50", "setting": "[3]", "value": "> 2000", "unit": "nM"}, {"measurement": "T47D pAKT S473 HTRF IC50 (H1047R): T47D (H1047R) selectivity over SKBR3 (WT)", "setting": "[1]", "value": "C (C denotes ≤5-fold)"}]}
{"smiles": "Cc1cc(C(C)Nc2ccccc2S(N)(=O)=O)c2nc(-c3ccc4c(c3)CC(F)(F)C4)c(C)c(=O)n2c1", "note": "(stereo not drawn)", "values": [{"measurement": "IC50", "setting": "EGF stimulation", "value": "100 to 500", "unit": "nM"}, {"measurement": "T47D pAKT S473 HTRF IC50 (H1047R): T47D (H1047R) selectivity over SKBR3 (WT)", "setting": "[2]", "value": "A (A denotes >20-fold)"}]}
